Activity calls are given as the source filed them. The calls are words filed in the database; no cut-off is given here.
How the values were obtained:
Homo sapiens [1] = organism: Homo sapiens; experiment: Selectivity ratio of Ki for human KOR to Ki for human NPFF1 receptor
Mus musculus [2] = experiment: Antihyperalgesic effect in C57BL/6J mouse assessed as reversal of NPFF-inducced effect at 10 nmol, icv administered 20 mins prior to NPFF challenge by 48 degC warm water tail withdrawal assay relative to vehicle-treated control
Mus musculus [3] = experiment: Antihyperalgesic effect in C57BL/6J mouse assessed as reversal of NPFF-inducced effect at 10 nmol, icv by 48 degC warm water tail withdrawal assay relative to vehicle-treated control
Homo sapiens [4] = organism: Homo sapiens; experiment: Selectivity ratio of Ki for human NPFF1 receptor to Ki for human NPFF2 receptor
Homo sapiens [5] = organism: Homo sapiens; experiment: Selectivity ratio of Ki for human KOR to Ki for human NPFF2 receptor
Mus musculus [6] = experiment: Antihyperalgesic effect in C57BL/6J mouse assessed as reversal of NPFF-inducced effect at 30 nmol, icv administered 20 mins prior to NPFF challenge by 48 degC warm water tail withdrawal assay relative to vehicle-treated control

N=C(N)NCC(=O)NCC1(Nc2cccc3ccccc23)CCN(Cc2ccccc2)CC1
Ratio Ki (Homo sapiens [1]): 7

COc1cc(NC2(CNC(=O)CNC(=N)N)CCN(Cc3ccccc3)CC2)cc(OC)c1
Ratio Ki (Homo sapiens [1]): 7

CC(=N)NCCC[C@H](NC(=O)C12CC3CC(CC(C3)C1)C2)C(=O)N[C@@H](Cc1ccccc1)C(N)=O
Activity (Mus musculus [2]): Active | Activity (Mus musculus [3]): inactive

N=C(N)NCC(=O)NCC1(Cc2ccccc2)CCN(Cc2ccccc2)CC1
Ratio Ki (Homo sapiens [4]): 5 | Ratio Ki (Homo sapiens [5]): 2

N=C(N)NCCNC(=O)C1(Nc2ccccc2)CCN(Cc2ccccc2)CC1
Activity (Mus musculus [6]): Active | Ratio Ki (Homo sapiens [1]): > 18

From ChEMBL document CHEMBL3351542, “Nonpeptide small molecule agonist and antagonist original leads for neuropeptide FF1 and FF2 receptors” (J Med Chem, 2014)
